According to ChEMBL document CHEMBL3826898, “Oxa-Pictet-Spengler reaction as key step in the synthesis of novel σ receptor ligands with 2-benzopyran structure” (Bioorg Med Chem, 2016):

Test: Displacement of [3H]di-o-tolylgluanidine from sigma 2 receptor in rat liver membranes at 1 uM after 2 hrs by scintillation counting
Conditions: Membrane

inhibition: 0%
Structure (SMILES): COC(=O)C[C@@H]1Cc2ccccc2[C@H](CCN2CCCCC2)O1 (racemic)
